Source: publication PMC7763263 (2020)

The chains behind the UniProt entries cited, without tags or fusion partners.
UniProt P21397, whole entry: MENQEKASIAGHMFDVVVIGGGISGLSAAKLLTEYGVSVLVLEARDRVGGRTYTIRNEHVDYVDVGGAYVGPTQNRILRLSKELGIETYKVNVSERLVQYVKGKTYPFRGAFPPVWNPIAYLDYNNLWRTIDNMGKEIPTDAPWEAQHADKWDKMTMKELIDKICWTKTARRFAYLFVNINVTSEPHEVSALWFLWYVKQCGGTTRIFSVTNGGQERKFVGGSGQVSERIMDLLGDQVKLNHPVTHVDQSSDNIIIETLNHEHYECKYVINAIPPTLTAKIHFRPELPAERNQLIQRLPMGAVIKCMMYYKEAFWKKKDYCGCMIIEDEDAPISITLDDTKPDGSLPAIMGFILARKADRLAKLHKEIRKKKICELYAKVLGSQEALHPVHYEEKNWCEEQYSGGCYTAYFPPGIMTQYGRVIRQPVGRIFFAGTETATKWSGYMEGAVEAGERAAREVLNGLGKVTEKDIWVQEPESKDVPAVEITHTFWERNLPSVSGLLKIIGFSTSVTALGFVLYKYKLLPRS

Columns and labels:
MAO-A [1] = molecular target: T1, MAO-A (Homo sapiens, UniProt P21397); assay: Time-dependent inactivation, Kitz-Wilson analysis
MAO-A [2] = molecular target: T1, MAO-A; assay: IC50 after 30 min preincubation, coupled assay with saturating substrate
MAO-A [3] = conditions: read-out: MAO-A Ki (rat); rat mitochondria; ref Fowler et al. [34]; cited from earlier work
MAO-A [4] = molecular target: T1, MAO-A; assay: biochemical

SMILES | Ki (MAO-A [1]) | IC50 (MAO-A [2]) | Ki (MAO-A [3]) | kinact (MAO-A [1]; read-out: MAO-A kinact) | kinact/KI (MAO-A [1]; read-out: MAO-A kinact/KI) | IC50 (MAO-A [4])
C#CCN(C)Cc1ccccc1 [Pargyline] | 22 µM | 2.47 ± 0.28 µM | 15 µM | – | – | –
NNCCc1ccccc1 [Phenelzine] | 3.13 µM | 4.5 ± 0.72 µM | – | 0.002 s⁻¹ | 638 M⁻¹ s⁻¹ | 52.7 µM
